Experimental data published in PMC2631555 (Bioorganic & medicinal chemistry letters, 2008).

Test system: tubulin
Settings: 5 µM compound; purified tubulin 7.2 µM, GTP, 37°C, 0.5% DMSO

COc1cc2c(c(OC)c1OC)-c1ccc(OC)c(=O)cc1[C@@H](NC(=O)CCCCCNC(=O)COc1ccc(/C=C/C3=[N+]4C(=Cc5ccc(-c6ccc[nH]6)n5[B-]4(F)F)C=C3)cc1)CC2 [colchicine-646]
Inhibition of tubulin polymerization: weak inhibition
